Reference: patent US6936723B2, “Synthetic salicylihalamides, apicularens and derivatives thereof” (Board of Regents, The University of Texas System, priority 2000, dated 2005)

Experiments:
[1] = system: human melanoma cell line SK-MEL-5; experiment: Growth inhibition of the SK-MEL-5 human melanoma cell line (MTT assay); conditions: growth determined 2 days after addition by MTT assay, triplicate assays at 4 concentrations
[2] = biological target: purified reconstituted V-ATPase from bovine brain (Bos taurus, UniProt P23956+P61420+Q29466+Q2TA24); experiment: Inhibition of purified reconstituted V-ATPase (proton pumping); format: biochemical

Row | SMILES | GI50 [1] | IC50 [2]
1 | CC/C=C/C=C\C(=O)N(/C=C/C[C@H]1C[C@@H](O)[C@@H](C)C/C=C/Cc2cccc(O)c2C(=O)O1)C(=O)N/C=C/C[C@H]1C[C@@H](O)[C@@H](C)C/C=C/Cc2cccc(O)c2C(=O)O1 | 100 nM | 1.2 nM
2 | CCCCCOC(=O)N/C=C/CC1C[C@@H](OC(=O)c2ccccc2)[C@@H](C)C/C=C/Cc2cccc(O)c2C(=O)O1 (stereo partly shown) | > 20000 nM | 180 nM
